Laboratory results taken from patent publication US6545045B1, “Prostaglandin E agonists for treatment of glaucoma” (Alcon Manufacturing, Ltd., priority 1998, dated 2003).

The chains behind the UniProt entries cited, without tags or fusion partners. Where a name states a change or a piece, a line headed by the entry shows the natural chain unless it says otherwise.
UniProt P43116: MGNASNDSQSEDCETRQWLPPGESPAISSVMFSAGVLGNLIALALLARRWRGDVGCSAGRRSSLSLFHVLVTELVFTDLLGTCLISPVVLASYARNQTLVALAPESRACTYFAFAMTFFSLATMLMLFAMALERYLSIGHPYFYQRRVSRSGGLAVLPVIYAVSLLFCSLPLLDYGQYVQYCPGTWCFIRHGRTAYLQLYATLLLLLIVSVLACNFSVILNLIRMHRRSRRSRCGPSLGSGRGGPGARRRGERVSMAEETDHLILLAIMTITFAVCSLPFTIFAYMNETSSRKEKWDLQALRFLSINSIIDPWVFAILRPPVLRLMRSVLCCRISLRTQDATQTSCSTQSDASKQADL

Target: T1, EP2 receptors (Homo sapiens, UniProt P43116)
T1 construct: Immortalized human non-pigmented ciliary epithelial cells (containing EP2 receptors); endogenous in cells; host or cells: immortalized human non-pigmented ciliary epithelial cells
Assay: cAMP production (radioimmunoassay) via EP2 receptors in immortalized human non-pigmented ciliary epithelial cells
Type: cell-based
Details: stimulated 15-60 min at 23° C, read-out: Potency (EC50, nM) at EP2 Receptors in Immortalized Human Non-pigmented Ciliary Epithelial Cells
Experimental: Immortalized human non-pigmented ciliary epithelial cells (containing EP2 receptors) and Chinese hamster ovary cells (containing EP4 receptors, Milne et al. Human moncytes and cultured Chinese hamster ovary cells express EP4 receptors positively coupled to adenylate cyclase, Br. J. Pharmacology, 113 (supplement):8 (1994)) were stimulated with various prostaglandins for 15-60 min at 23° C. […]

For `CCCCC[C@H](O)/C=C/[C@H]1[C@H](O)CC(=O)[C@@H]1C/C=C\CCCC(=O)O` [PGE2], the EC50 was 38 nM.
